{
  "sequences": {"note": "The chains behind the UniProt entries cited, without tags or fusion partners. Residues count along the entry.", "UniProt P07359, 17-531": "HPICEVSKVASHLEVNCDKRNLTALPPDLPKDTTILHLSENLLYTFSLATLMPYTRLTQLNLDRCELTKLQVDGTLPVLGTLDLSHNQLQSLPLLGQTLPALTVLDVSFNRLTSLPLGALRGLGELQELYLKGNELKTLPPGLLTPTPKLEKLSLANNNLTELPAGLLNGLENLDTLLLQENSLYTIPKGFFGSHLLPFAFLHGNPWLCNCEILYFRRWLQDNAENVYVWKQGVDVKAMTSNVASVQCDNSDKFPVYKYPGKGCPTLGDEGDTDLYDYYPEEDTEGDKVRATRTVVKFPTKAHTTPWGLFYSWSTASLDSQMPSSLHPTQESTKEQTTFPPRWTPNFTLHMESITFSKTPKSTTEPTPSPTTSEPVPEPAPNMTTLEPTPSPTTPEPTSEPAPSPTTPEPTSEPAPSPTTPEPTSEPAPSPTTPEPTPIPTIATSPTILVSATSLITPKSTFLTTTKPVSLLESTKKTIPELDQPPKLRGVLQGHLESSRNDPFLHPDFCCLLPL"},
  "source": "paper PMC5148012",
  "about": "“HbS Binding to GP1bα Activates Platelets in Sickle Cell Disease” (PLoS ONE, 2016)",
  "binders": {"B1": {"name": "sickle hemoglobin (HbS) (complex)", "chain 1": "not shown", "chain 2": "not shown"}},
  "key": {"[1]": {"biological_target": "T1, glycocalicin (extramembranous proteolytic fragment of platelet GP1bα) (human (endogenous in platelets), UniProt P07359 17-531)", "T1 construct": "platelet glycoprotein Ib alpha (GP1bα), human; glycocalicin, the extramembranous proteolytic fragment released from sonicated platelets; In the functional rows this molecule stands for GP1bα on the surface of human platelets; also called extramembranous part of GP1bα; source: purified from outdated human platelets (wheat germ lectin agarose, HiTrap DEAE-FF ion exchange)", "assay": "SPR; BIAcore T200; glycocalicin covalently coupled to C1 sensor chip via aldehyde coupling to 1200 RU; HbS perfused at 30 μL/min; 10 mM HEPES, 150 mM NaCl, 0.05% Tween 20, pH 7.4, 25°C; steady state affinity model", "details": "both partners purified"}, "[2]": {"biological_target": "T1, glycocalicin (extramembranous …)", "assay": "cell-based or functional assay"}},
  "data": [
    {"binder": "B1", "values": [
      {"measurement": "Kd", "setting": "[1]", "value": "~10.5", "unit": "µM"},
      {"measurement": "HbS-mediated phosphorylation of Akt in washed human platelets with the GP1bα peptide AA1-50 (0.5 μM), fold-change", "setting": "[2]", "value": 1.32, "unit": "fold-change"},
      {"measurement": "HbS-mediated phosphorylation of ERK in washed human platelets with the GP1bα peptide AA1-50 (0.5 μM), fold-change", "setting": "[2]", "value": 2.17, "unit": "fold-change"},
      {"measurement": "HbS-mediated phosphorylation of Lyn in washed human platelets with the GP1bα peptide AA1-50 (0.5 μM), fold-change", "setting": "[2]", "value": 1.06, "unit": "fold-change"},
      {"measurement": "HbS-mediated phosphorylation of PI3K in washed human platelets with the GP1bα peptide AA1-50 (0.5 μM), fold-change", "setting": "[2]", "value": 0.711, "unit": "fold-change"},
      {"measurement": "phosphorylation of Akt in washed human platelets (immunoblot, phospho/non-phospho, fold-change), HbS 0.37-4.5 μM; maximum at 1.5 μM HbS", "setting": "[2]", "value": 2.45, "unit": "fold-change"},
      {"measurement": "phosphorylation of ERK in washed human platelets (immunoblot, phospho/non-phospho, fold-change), HbS 0.37-4.5 μM; maximum at 1.12 μM HbS", "setting": "[2]", "value": 2.51, "unit": "fold-change"},
      {"measurement": "phosphorylation of Lyn in washed human platelets (immunoblot, ratio p-Lyn/Lyn, fold-change), HbS 0.37-4.5 μM; maximum at 1.5 μM HbS", "setting": "[2]", "value": 19.6, "unit": "fold-change"},
      {"measurement": "phosphorylation of PI3K in washed human platelets (immunoblot, phospho/non-phospho, fold-change), HbS 0.37-4.5 μM; maximum at 1.12 μM HbS", "setting": "[2]", "value": 53.4, "unit": "fold-change"}
    ]}
  ]
}
